In ChEMBL document CHEMBL1949555, “Piperazine-2,3-dicarboxylic acid derivatives as dual antagonists of NMDA and GluK1-containing kainate receptors” (J Med Chem, 2012) one finds inhibition and Kb data, which are given here for two molecules.

The chains behind the UniProt entries cited, without tags or fusion partners. Where a name states a change or a piece, a line headed by the entry shows the natural chain unless it says otherwise.
UniProt Q00959, whole entry, looked up: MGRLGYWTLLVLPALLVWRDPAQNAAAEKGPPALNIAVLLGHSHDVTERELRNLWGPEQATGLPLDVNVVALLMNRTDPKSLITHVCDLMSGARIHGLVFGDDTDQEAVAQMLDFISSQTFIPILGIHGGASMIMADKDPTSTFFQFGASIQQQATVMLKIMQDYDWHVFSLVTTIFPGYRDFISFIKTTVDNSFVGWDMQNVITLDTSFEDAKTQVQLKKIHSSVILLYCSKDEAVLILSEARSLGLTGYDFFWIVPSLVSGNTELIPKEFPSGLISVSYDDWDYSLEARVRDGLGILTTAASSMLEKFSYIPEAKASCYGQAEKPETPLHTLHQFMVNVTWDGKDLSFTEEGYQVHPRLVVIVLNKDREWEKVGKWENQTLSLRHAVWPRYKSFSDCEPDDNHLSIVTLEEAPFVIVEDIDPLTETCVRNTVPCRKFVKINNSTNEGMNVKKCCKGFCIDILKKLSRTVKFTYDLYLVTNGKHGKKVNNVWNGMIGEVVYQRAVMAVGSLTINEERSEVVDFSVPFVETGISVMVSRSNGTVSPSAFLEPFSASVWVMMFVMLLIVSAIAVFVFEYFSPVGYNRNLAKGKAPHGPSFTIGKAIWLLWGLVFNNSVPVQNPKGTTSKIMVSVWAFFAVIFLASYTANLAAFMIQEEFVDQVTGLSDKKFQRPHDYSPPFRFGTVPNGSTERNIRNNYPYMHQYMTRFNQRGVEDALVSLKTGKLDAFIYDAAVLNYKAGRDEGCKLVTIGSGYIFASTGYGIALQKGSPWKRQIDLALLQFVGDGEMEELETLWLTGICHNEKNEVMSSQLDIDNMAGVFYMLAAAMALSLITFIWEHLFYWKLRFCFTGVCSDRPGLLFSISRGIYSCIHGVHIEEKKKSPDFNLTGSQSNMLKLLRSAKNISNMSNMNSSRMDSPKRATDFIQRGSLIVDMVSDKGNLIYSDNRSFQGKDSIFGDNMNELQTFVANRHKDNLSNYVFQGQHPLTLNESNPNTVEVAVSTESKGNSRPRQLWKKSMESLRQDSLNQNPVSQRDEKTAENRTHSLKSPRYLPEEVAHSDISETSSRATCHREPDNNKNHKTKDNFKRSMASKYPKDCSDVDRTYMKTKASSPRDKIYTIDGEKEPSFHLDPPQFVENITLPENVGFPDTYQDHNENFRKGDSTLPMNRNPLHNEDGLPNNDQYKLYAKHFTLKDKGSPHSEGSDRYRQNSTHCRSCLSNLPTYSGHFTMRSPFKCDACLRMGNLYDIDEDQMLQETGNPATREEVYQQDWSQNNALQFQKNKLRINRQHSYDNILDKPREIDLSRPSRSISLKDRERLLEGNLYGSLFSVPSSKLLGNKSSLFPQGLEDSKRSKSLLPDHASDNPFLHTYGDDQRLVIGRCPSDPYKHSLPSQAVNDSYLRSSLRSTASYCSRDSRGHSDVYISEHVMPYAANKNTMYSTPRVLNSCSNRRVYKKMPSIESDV
UniProt Q00960, whole entry, looked up: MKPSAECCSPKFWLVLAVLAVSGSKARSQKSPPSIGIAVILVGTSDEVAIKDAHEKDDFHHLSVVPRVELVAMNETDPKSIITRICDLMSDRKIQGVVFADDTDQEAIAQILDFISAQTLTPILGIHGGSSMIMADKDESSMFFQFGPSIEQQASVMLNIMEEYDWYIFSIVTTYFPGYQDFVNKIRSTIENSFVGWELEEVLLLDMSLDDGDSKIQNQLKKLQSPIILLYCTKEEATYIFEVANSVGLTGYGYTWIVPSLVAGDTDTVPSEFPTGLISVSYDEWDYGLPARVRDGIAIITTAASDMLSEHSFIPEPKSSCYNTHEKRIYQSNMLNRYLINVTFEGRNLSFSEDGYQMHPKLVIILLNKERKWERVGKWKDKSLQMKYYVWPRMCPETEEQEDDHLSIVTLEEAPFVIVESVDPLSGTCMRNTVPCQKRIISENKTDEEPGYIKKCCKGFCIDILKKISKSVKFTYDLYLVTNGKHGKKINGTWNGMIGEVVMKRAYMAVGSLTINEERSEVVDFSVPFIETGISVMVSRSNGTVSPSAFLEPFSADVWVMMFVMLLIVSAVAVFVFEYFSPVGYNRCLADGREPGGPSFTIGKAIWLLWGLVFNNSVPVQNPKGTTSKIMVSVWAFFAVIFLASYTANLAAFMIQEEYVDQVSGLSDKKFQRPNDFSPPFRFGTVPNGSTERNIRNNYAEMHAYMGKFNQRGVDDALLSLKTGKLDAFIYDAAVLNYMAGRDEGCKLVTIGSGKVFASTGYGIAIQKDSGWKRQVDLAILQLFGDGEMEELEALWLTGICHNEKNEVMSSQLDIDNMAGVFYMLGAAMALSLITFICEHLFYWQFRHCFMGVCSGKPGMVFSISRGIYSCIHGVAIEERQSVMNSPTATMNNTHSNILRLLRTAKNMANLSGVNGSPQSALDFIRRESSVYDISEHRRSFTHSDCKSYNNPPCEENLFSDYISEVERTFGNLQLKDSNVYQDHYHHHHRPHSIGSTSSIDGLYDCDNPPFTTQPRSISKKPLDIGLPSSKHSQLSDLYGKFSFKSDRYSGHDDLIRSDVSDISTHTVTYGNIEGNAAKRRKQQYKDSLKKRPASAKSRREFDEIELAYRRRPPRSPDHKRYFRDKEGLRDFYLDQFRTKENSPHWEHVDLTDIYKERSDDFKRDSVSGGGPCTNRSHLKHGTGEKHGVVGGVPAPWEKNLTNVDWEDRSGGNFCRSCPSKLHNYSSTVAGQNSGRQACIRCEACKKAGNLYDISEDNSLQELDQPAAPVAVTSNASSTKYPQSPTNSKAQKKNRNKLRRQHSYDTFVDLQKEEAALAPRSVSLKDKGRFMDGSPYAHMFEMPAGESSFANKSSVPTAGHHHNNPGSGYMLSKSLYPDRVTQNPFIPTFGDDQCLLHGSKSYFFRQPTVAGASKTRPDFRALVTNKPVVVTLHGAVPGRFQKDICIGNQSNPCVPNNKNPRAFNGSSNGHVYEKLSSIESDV
UniProt P39086: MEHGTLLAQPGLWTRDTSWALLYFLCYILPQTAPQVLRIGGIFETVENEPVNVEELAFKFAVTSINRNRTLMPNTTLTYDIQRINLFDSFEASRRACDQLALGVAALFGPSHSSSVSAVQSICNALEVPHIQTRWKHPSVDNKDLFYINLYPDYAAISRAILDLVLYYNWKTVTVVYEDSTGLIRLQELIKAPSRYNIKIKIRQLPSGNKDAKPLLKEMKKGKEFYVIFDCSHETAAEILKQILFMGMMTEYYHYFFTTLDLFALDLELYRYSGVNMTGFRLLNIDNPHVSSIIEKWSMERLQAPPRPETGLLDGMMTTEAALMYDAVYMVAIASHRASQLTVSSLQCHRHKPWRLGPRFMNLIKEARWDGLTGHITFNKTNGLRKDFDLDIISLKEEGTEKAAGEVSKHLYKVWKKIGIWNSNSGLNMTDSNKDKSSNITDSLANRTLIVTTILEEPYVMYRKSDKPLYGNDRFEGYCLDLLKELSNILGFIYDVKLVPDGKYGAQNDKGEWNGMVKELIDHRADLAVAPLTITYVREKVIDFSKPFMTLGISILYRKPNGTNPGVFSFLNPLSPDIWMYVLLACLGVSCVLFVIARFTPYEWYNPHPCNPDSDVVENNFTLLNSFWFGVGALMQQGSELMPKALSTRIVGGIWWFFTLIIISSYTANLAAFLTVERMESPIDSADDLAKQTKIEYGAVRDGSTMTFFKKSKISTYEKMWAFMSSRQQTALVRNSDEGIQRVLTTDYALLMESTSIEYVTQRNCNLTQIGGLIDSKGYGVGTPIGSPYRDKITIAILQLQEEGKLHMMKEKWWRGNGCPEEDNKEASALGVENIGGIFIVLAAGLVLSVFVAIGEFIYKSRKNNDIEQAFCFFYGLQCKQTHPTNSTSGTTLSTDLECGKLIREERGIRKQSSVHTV

As usually defined, the inhibition is the percentage by which the read-out fell short of the control. Usually Kb stands for the equilibrium dissociation constant of an antagonist, usually derived from a functional assay.

Holding throughout (type): functional, cell-based
Assay [1] has as its target Glutamate NMDA receptor; Grin1/Grin2a (Rattus norvegicus) (UniProt P35439+Q00959). Description: Antagonist activity at rat recombinant GluN1/GluN2A receptor expressed in Xenopus laevis oocytes assessed as inhibition of glutamate-induced response at 100 uM by two-electrode voltage-clamp electrophysiology assay. The following applies: Oocyte. The method in brief: (§1)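 Rat GluN1a co-expressed with GluN2A, 2B, 2C or 2D in Xenopus oocytes. Two-electrode voltage clamp at −60 mV in buffer of 116 mM NaCl, 2 mM KCl, 0.3 mM BaCl2, 5 mM HEPES, pH 7.4. Response is the steady plateau evoked by bath-applied 10 μM L-glutamate plus 10 μM glycine. Read-out is percent antagonism by 100 μM test compound.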

The target in assay [2] is Glutamate NMDA receptor; Grin1/Grin2b (Rattus norvegicus) (UniProt P35439+Q00960). In words: Antagonist activity rat recombinant GluN1/GluN2B receptor expressed in Xenopus laevis oocytes assessed as inhibition of glutamate-induced response at 100 uM by two-electrode voltage-clamp electrophysiology assay. To be noted: Oocyte. The method in brief: as §1
Background: Two-electrode voltage clamp holds a large cell at a set potential and records current.

Assay [3] concerns the target Glutamate receptor ionotropic, kainate 1 (Homo sapiens, UniProt P39086). Description: Antagonist activity at human recombinant GluK1 receptor expressed in human HEK293 cells assessed as inhibition of glutamate-stimulated calcium influx by fluorescence assay. The method in brief: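 HEK293 lines stably expressing homomeric human GluK1(Q) or GluK2(Q), passaged no more than 20 times. Ca2+ influx is read as fluorescence, with concanavalin A present. Test compound is added in a first run, then L-glutamate plus antagonist in a second run (final glutamate 30 μM for GluK1, 10 μM for GluK2). IC50 values are converted to KB. Means ± s.e.m.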

`O=C(O)[C@H]1NCCN(C(=O)c2ccc3cc(-c4ccccc4)ccc3c2)[C@H]1C(=O)O` (relative stereo): the inhibition in assay [1] is 30.3%; in assay [2] it was 37.1%.
As for `O=C(O)[C@H]1NCCN(C(=O)c2ccc(C#Cc3ccccc3)cc2)[C@H]1C(=O)O` (relative stereo), the Kb in assay [3] came out at 13.4 µM.
